Amino acid sequences for entries named in this document (tags omitted). A change or cut given only in a name is not applied to a line headed by its entry.
UniProt P41145: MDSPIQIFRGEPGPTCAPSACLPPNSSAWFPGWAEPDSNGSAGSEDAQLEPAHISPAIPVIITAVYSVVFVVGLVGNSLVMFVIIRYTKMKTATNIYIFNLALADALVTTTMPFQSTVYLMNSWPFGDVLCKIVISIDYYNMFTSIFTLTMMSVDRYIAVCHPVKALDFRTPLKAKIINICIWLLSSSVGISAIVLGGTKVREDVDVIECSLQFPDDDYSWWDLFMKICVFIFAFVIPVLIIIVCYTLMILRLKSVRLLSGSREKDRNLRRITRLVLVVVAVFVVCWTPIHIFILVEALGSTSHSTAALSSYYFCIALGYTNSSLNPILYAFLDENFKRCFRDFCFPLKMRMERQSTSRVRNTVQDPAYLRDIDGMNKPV
UniProt P35372, whole entry: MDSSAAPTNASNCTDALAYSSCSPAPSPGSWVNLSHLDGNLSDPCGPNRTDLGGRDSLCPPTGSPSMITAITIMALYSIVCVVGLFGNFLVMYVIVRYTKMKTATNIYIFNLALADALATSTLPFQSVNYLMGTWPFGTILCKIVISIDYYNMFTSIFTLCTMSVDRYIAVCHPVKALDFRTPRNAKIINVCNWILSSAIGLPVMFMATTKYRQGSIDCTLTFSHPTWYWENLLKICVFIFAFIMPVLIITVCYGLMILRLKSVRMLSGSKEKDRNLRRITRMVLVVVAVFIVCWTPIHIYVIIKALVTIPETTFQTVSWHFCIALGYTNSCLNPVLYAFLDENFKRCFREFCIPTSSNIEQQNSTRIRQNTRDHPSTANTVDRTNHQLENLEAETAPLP

According to ChEMBL document CHEMBL2384966, “Probes for narcotic receptor mediated phenomena. 47. Novel C4a- and N-substituted-1,2,3,4,4a,9a-hexahydrobenzofuro[2,3-c]pyridin-6-ols” (Bioorg Med Chem, 2013):

How the values were obtained:
[1] = target: Kappa-type opioid receptor (Homo sapiens, UniProt P41145); assay: Partial agonist activity at human recombinant kappa opioid receptor expressed in CHO cell membranes assessed as stimulation of [35S]GTPgammaS binding after 3 hrs by liquid scintillation counting analysis relative to (-)-U50,488; format: functional, cell-based
Mu-type opioid receptor = Mu-type opioid receptor (Homo sapiens, UniProt P35372); assay: Partial agonist activity at human recombinant mu opioid receptor expressed in CHO cell membranes assessed as stimulation of [35S]GTPgammaS binding after 3 hrs by liquid scintillation counting analysis relative to DAMGO; format: functional, cell-based

SMILES | Emax [1] [%] | Emax (Mu-type opioid receptor) [%]
Oc1ccc2c(c1)[C@]1(CCc3ccccc3)CCN(CC3CC3)C[C@@H]1O2 (relative stereo) | 18 | 
Oc1ccc2c(c1)[C@]1(CCc3ccccc3)CCN(CCc3ccc(C(F)(F)F)cc3)C[C@@H]1O2 (relative stereo) |  | 60
Oc1ccc2c(c1)[C@]1(CCc3ccccc3)CCN(CCc3ccccc3F)C[C@@H]1O2 (relative stereo) |  | 82
Oc1ccc2c(c1)[C@]1(CCc3ccccc3)CCN(CCc3ccccc3)C[C@@H]1O2 (relative stereo) |  | 75
Oc1ccc2c(c1)[C@]1(CCc3ccccc3)CCN(CCc3ccc(F)cc3)C[C@@H]1O2 (relative stereo) |  | 43
